Assay results as given in US6638905B2, “Cloning and recombinant production of CFR receptor(s)” (priority 1993, dated 2003).

Biological target: T1, hCRF-RA1 (CRF receptor encoded by clone hctCRFR) (Homo sapiens, UniProt P34998)
T1 construct: expressed in transfected cells; host or cells: COSM6 cells, DEAE-dextran transient transfection of clone hctCRFR in pcDNA1
T1 sequence (P34998 24-415): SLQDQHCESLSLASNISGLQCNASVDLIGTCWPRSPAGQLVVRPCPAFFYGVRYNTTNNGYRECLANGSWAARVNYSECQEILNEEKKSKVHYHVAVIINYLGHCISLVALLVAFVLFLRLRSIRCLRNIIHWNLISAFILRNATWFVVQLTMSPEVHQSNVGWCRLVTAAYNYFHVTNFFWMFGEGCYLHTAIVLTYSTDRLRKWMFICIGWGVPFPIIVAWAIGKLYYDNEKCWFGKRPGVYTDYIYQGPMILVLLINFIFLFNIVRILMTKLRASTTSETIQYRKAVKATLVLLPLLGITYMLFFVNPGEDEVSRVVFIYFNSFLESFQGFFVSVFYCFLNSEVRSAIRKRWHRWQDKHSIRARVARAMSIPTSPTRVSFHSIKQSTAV
Test: Competitive radioreceptor assay: displacement of 125I-(Nle21,Tyr32)-ovine CRF from membranes of COSM6 cells transfected with hctCRFR
Conditions: read-out: Kd (binding affinity), COSM6 cell membranes
Description: Approximately 10^6 COSM6 cells were transfected with either […] or […] (rat gonadotropin releasing hormone receptor) by the DEAE-dextran method and grown in 150 mm tissue culture dishes. Two days after transfection, the cells were washed twice with 1 ml HDB and were detached by incubation for 15 min at room temperature in 0.5 mM EDTA in HDB. After pelleting, the cells were washed twice with HDB, and then homogenized in 5% sucrose (16 ml/150 mm dish). […] The reaction was terminated by filtration through GF/C (Whatman) filters, prewetted with 1%BSA, 10 mM HEPES, pH 7.5. The filters were washed 4 times with 1 ml 0.1% BSA, 50 mM Tris, pH 7.5. Filter-bound radioactivity, indicating the presence of CRF-R:^125 I-([…],Tyr^32)-ovine CRF complex, was determined by g-scintillation counting.

Q: For ovine CRF, which Kd is on record?
A: 2.3 ± 0.66 nM
